High-throughput results (PubChem)
Yeast UUG start: alters start codon recognition fidelity in yeast. S. cerevisiae UUG-firefly luciferase reporter, luminescence/redox ratio. 350,000 tested, 0.13% active. activity score, % at 18.7 µM. AID 602363;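 active means replicate mean at a twofold rise or more, about +100% in these data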;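 further: firefly luciferase made from a UUG start codon reports start codon fidelity; reporter light over untreated wells divided by growth signal over untreated wells; some hits fall short of that in this replicate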
CAL PDZ FP-1: blocks peptide binding to human CAL PDZ domain; Q9HD26; purified CAL PDZ, TMR-peptide fluorescence polarization, 1 h; inhibition, % at 20 µM; 330,000 tested, 0.02% active; AID 504414;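 active = highest replicate inhibition of at least 40%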;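 also: plate controls were DMSO neutral control wells for no effect and unlabeled competitor peptide control wells for full effect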
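material = purified tagged CAL PDZ domain construct (CerCALP) | compound dosing = 20 µM, one dose | times = 1 h at RT | measured by = fluorescence polarization from S- and P-plane intensities, G-factor corrected | read-out = inhibition from polarization loss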
PglD DTNB: inhibitors of Campylobacter jejuni PglD acetyltransferase; purified PglD enzyme, DTNB colorimetric CoA detection; inhibition, % at 12.5 µM; 360,000 tested, 0.098% active; in the data active = inhibition above about 16%, passing the limit was not always enough; inconclusive = no clear call, values can overlap the other calls
Vif inh: inhibitors of HIV Vif; HEK293T cells, Vif self-association by quenched fluorescence, imaging, 24 h; inhibition, % at 7.49 µM; 340,000 tested, 0.35% active; AID 602346; in the data active = inhibition above about 50%, passing the limit was not always enough; inconclusive = no clear call, values can overlap the other calls; inactive = below about 31%
CAL PDZ FP-2: inhibitors of human CAL PDZ peptide binding; 300,000 tested, 0.92% active; inhibition, % at 24.9 µM; purified CAL PDZ, TMR-peptide fluorescence polarization, 1 h;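 active = mean inhibition of at least 30% with at least half of replicates also reaching 30%; inconclusive = no clear call, values can overlap the other calls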;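 also: 0% = DMSO neutral control and 100% = excess unlabeled competitor peptide PRC23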
ARNT TACC3 PPI: ARNT/TACC3 interaction disruption | Q9Y6A5 | AlphaScreen His-ARNT PAS-B/GST-TACC3 binding, luminescence; TACC3 fragment carries E629A point mutation | inhibition, % at 9.99 µM | 390,000 tested, 0.66% active | AID 623870;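 active = mean inhibition of replicates at least 50% and at least half of replicates each reaching 50%; inconclusive = half or more replicates reach 50% but mean below 50%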;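 also: 0% = complete ARNT plus TACC3 wells and 100% = ARNT alone without TACC3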
The depositor's hits bear a star. Most compounds without a hit are left out; they make up all but 1.6% or so of the library.

For COC(=O)[C@@H]1[C@@H](C(=O)OC)C2(c3ccccc3-c3ccccc32)N(c2ccc(Cl)cc2)N1C#N the results were Yeast UUG start -9, CAL PDZ FP-1 -1, PglD DTNB -4, Vif inh -4 and CAL PDZ FP-2 -2.
For COC(=O)C[C@]1(C(=O)OC)CN(C#N)N(c2ccc(Cl)cc2)C12c1ccccc1-c1ccccc12 the results were Yeast UUG start -16, CAL PDZ FP-1 -3, PglD DTNB -3, Vif inh 57* and CAL PDZ FP-2 -1.
`N#Cc1cccc(-c2ccc([C@@H]3[C@H](CO)N4CCCCN(C(=O)Cc5ccccc5)C[C@@H]34)cc2)c1` gave Yeast UUG start -9, PglD DTNB 0 and ARNT TACC3 PPI 0.
Screening COc1ccc(CN2CCCC(C(=O)c3cccc(Cl)c3)C2)cc1 (stereo not given) returned Yeast UUG start -27, CAL PDZ FP-1 -1, PglD DTNB 1, Vif inh -11, CAL PDZ FP-2 1 and ARNT TACC3 PPI 4.
CC(C)Oc1cccc(C(=O)C2CCCN(Cc3ccon3)C2)c1 (stereo not given) was read as Yeast UUG start -17, CAL PDZ FP-1 -1, PglD DTNB 4, Vif inh -8, CAL PDZ FP-2 65* and ARNT TACC3 PPI 3.
For CSc1ncc(CN2CCCC(C(=O)c3cccc(Cl)c3)C2)cn1 (stereo not given) the results were Yeast UUG start -18, CAL PDZ FP-1 0, PglD DTNB 4, Vif inh -2, CAL PDZ FP-2 48* and ARNT TACC3 PPI 3.
For COC(=O)[C@@H]1[C@@H](CO)[C@@H]2Cn3c(ccc(/C=C/c4ccccc4)c3=O)[C@H]1N2C(=O)C1CCC1 the results were Yeast UUG start 6, PglD DTNB 5 and ARNT TACC3 PPI -32.
For O=C(N/N=C/C1C(=O)NC(=S)N(c2ccccc2)C1=O)c1cc(Br)c(O)c(Br)c1 (stereo not given) the results were Vif inh 14, CAL PDZ FP-2 4 and ARNT TACC3 PPI 65*.
For O=C(N/N=C/c1c(O)n(C2CCCCC2)c(=S)[nH]c1=O)c1ccccc1 the results were Yeast UUG start -10, CAL PDZ FP-1 -1, PglD DTNB 2, Vif inh -6, CAL PDZ FP-2 0 and ARNT TACC3 PPI 30.
`CCCNC(=O)N1[C@@H]2Cn3c(ccc(-c4ccccc4OC)c3=O)[C@H]1[C@@H](C(=O)O)[C@@H]2CO` gave PglD DTNB 6 and ARNT TACC3 PPI -5.
Cc1cccc(S(=O)(=O)N2[C@@H]3c4ccc(-c5cccc(F)c5)c(=O)n4C[C@H]2[C@H](CO)[C@H]3C(=O)O)c1 was read as PglD DTNB 1 and ARNT TACC3 PPI 4.
COc1ccc2nc(/N=C/c3c(O)n(-c4cccc(Cl)c4)c(=O)[nH]c3=O)sc2c1 was read as Vif inh 2, CAL PDZ FP-2 -4 and ARNT TACC3 PPI 79*.

As a short view, 3 of the compounds above:
`CCCNC(=O)N1[C@@H]2Cn3c(ccc(-c4ccccc4OC)c3=O)[C@H]1[C@@H](C(=O)O)[C@@H]2CO` gave PglD DTNB 6 and ARNT TACC3 PPI -5.
Cc1cccc(S(=O)(=O)N2[C@@H]3c4ccc(-c5cccc(F)c5)c(=O)n4C[C@H]2[C@H](CO)[C@H]3C(=O)O)c1 was read as PglD DTNB 1 and ARNT TACC3 PPI 4.
COc1ccc2nc(/N=C/c3c(O)n(-c4cccc(Cl)c4)c(=O)[nH]c3=O)sc2c1 was read as Vif inh 2, CAL PDZ FP-2 -4 and ARNT TACC3 PPI 79*.

(next part)
Screening O=C(Nc1ccc(Cl)cc1)OC1CN2CCC1CC2 (stereo not given) returned CAL PDZ FP-1 -1, Vif inh 14, CAL PDZ FP-2 48* and ARNT TACC3 PPI 1.
For CC(=O)c1cc(C(C)=O)c(C)[n+](C)c1C the results were CAL PDZ FP-1 -1, Vif inh 91*, CAL PDZ FP-2 -2 and ARNT TACC3 PPI 16.
CC(=O)c1ccc(-c2ccccc2)cc1 was read as Yeast UUG start 1, CAL PDZ FP-1 -2, PglD DTNB 0, Vif inh 0, CAL PDZ FP-2 -3 and ARNT TACC3 PPI -5.
COCC#Cc1ccc([C@H]2[C@H](CO)N3CCCCN(C(=O)Cc4ccccn4)C[C@@H]23)cc1 was read as Yeast UUG start 4, PglD DTNB 0 and ARNT TACC3 PPI 14.
Cc1cccc(S(=O)(=O)N2[C@@H]3Cn4c(ccc(-c5ccccc5)c4=O)[C@H]2[C@@H](C(=O)O)[C@@H]3CO)c1 was read as PglD DTNB -3 and ARNT TACC3 PPI -7.
Screening CC(C)(C)C(=O)O[C@H]1CC[C@@]2(C)C(=CC(=O)C3C2CC[C@]2(C)C(=O)CCC32)C1 (stereo not given in full) returned Yeast UUG start -18, CAL PDZ FP-1 0, PglD DTNB -3, Vif inh inconclusive, CAL PDZ FP-2 85* and ARNT TACC3 PPI -3.
For CC(=O)O[C@H]1CC[C@@]2(C)C(=CC[C@@H]3[C@@H]2CC[C@]2(C)C(=O)CC[C@@H]32)C1 the results were Yeast UUG start -7, CAL PDZ FP-1 -1, PglD DTNB -10, Vif inh 25, CAL PDZ FP-2 1 and ARNT TACC3 PPI -5.
CCCC#Cc1ccc([C@@H]2[C@@H](CO)N3CCCCN(C(=O)Cc4ccccn4)C[C@@H]23)cc1 was read as Yeast UUG start 23, PglD DTNB 3 and ARNT TACC3 PPI -1.
Screening O=C(O)[C@@H]1[C@@H](CO)[C@@H]2Cn3c(ccc(-c4cccnc4)c3=O)[C@H]1N2C(=O)Nc1cc(F)ccc1F returned PglD DTNB 21 and ARNT TACC3 PPI 1.
Screening Cc1ccc(OP2(=O)Nc3cc(C)c(C)cc3S2)cc1 (stereo not given) returned Yeast UUG start -24, CAL PDZ FP-1 -2, PglD DTNB 6, Vif inh -2, CAL PDZ FP-2 0 and ARNT TACC3 PPI 46*.
For CN(C)C1=NC(N(C)C)=NP(N(C)C)(N(C)C)=N1 the results were Yeast UUG start -10, CAL PDZ FP-1 -2, PglD DTNB -2, CAL PDZ FP-2 35* and ARNT TACC3 PPI -10.
O=C1NC(=S)NC(=O)C1=Cc1cccc2cc3ccccc3cc12 was read as Yeast UUG start -13, CAL PDZ FP-1 -2, PglD DTNB -10, Vif inh 26, CAL PDZ FP-2 -2 and ARNT TACC3 PPI 21*.
Screening COc1ccc(C=C2C(=O)NC(=S)NC2=O)cc1 returned CAL PDZ FP-1 0, Vif inh -7, CAL PDZ FP-2 -4 and ARNT TACC3 PPI 6.
`COC(=O)[C@@H]1[C@@H](CO)[C@@H]2Cn3c(ccc(-c4cccc(F)c4)c3=O)[C@H]1N2Cc1ccccc1` gave PglD DTNB 1 and ARNT TACC3 PPI 4.
`O=C(Cc1cccnc1)N1CCCCN2[C@H](CO)[C@H](c3ccc(C#CC4CC4)cc3)[C@@H]2C1` gave Yeast UUG start 5 and PglD DTNB 3.
Screening Nc1cc(N2CCNCC2)c([N+](=O)[O-])cc1Cl returned CAL PDZ FP-1 0, Vif inh 6, CAL PDZ FP-2 -7 and ARNT TACC3 PPI 0.
CCn1c(=O)n(CC)c2cc([N+](=O)[O-])c(N3CCNCC3)cc21 was read as Yeast UUG start -7, CAL PDZ FP-1 13, PglD DTNB -4, Vif inh -3, CAL PDZ FP-2 69* and ARNT TACC3 PPI 2.
